Measured values published in ChEMBL document CHEMBL1125652, “Kynurenic acid derivatives. Structure-activity relationships for excitatory amino acid antagonism and identification of potent and selective antagonists at the glycine site on the N-methyl-D-aspartate receptor” (J Med Chem, 1991).

Assays:
Glutamate NMDA receptor [1] = experiment: Inhibition of [3H]-glutamate binding to N-methyl-D-aspartate glutamate receptor of rat cortical membranes; type: cell membranes, Membrane
Glutamate NMDA receptor [2] = experiment: Inhibition of [3H]glycine binding to glycine site of N-methyl-D-aspartate glutamate receptor in rat cortical membranes; type: cell membranes, Membrane

IC50 (Glutamate NMDA receptor [1]): 184 µM
IC50 (Glutamate NMDA receptor [2]): 41 µM
Compound: O=C(O)c1cc(=O)c2ccccc2[nH]1 [TRANSTORINE]
